The chains behind the UniProt entries cited, without tags or fusion partners. Residues count along the entry.
UniProt P29597, 589-875: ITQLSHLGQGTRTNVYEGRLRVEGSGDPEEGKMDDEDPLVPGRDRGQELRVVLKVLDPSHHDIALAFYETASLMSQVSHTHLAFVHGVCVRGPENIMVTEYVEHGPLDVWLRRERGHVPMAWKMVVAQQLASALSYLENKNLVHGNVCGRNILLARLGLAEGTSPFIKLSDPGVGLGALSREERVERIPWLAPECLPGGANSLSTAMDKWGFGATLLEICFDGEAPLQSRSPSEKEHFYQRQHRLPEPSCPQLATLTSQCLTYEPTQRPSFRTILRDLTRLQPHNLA

In patent publication US11053219B2 (dated 2021):

Biological target: TYK2 (JH2 domain) (Homo sapiens (Human), UniProt P29597)
Assay: TYK2 JH2 domain binding assay (DiscoverX KINOMEscan)
Details: read-out: TYK2 (JH2 domain) binding Kd
[1] = KINOMEscan, 11-point 3-fold dilution, duplicate

Row | Compound | Kd [nM] | Kd [1] [nM]
1 | COc1c(Nc2cc(NC(=O)C3CC3)ncc2C(=O)C2CC2)cccc1-c1ncn(C)n1 [Example 27] | < 1 | 
2 | [2H]C([2H])([2H])Oc1c(Nc2cc(NC(=O)C3CC3)ncc2C(=O)C2CC2)cccc1-c1ncn(C)n1 [Example 34] |  | ≤ 1
3 | [2H]C([2H])([2H])n1cnc(-c2cccc(Nc3cc(NC(=O)C4CC4)ncc3C(=O)C3CC3)c2OC)n1 [Example 54] |  | ≤ 1
4 | [2H]C([2H])([2H])Oc1c(Nc2cc(NC(=O)C3CC3)ncc2C(=O)C2CC2)cccc1-c1ncn(C([2H])([2H])[2H])n1 [Example 127] |  | ≤ 1
5 | COc1c(-c2ncn(C)n2)ccnc1Nc1cc(NC(=O)C2CC2)ncc1C(=O)C1CC1 [Example 166] |  | ≤ 1

Read-outs that look alike come from different tables or passages of the source.
